Data taken from US20090275546A1, “Diagnostic tests and personalized treatment regimes for cancer stem cells” (Istituto Superiore di Sanita, priority 2008, published 2009).

System: colon CSCs
Assay: kinase inhibitor library screening, ATP-based viability assay
Format: cell-based, human

Compound: N#CC(=C(/N)Sc1ccccc1N)/C(C#N)=C(\N)Sc1ccccc1N [U0126]
- effect on colon CSC proliferation / number versus DMSO controls: significantly lead to a reduction in colon CSC numbers
